These are literature values, as cited in patent publication US11452718B2 (AVALYN PHARMA INC., priority 2012, dated 2022).

In the series the test system is patients carrying the ALK fusion gene. The settings on record: nausea, vomiting, or diarrhea; cited from earlier work.

On to `C[C@@H](Oc1cc(-c2cnn(C3CCNCC3)c2)cnc1N)c1c(Cl)ccc(F)c1Cl` [Crizotinib], for which the “patients with at least one side effect” value was “Approximately 50%”.
